Screen for blockers of NLRP3-driven cell death, PubChem AID 2061109 (Seoul National University).
Cells: mouse bone marrow macrophages; stimulus: LPS priming, then nigericin; dose: 5 µM; read-out: propidium iodide uptake by live imaging.
Inhibition in %: 0 = stimulated control, 100 = untreated cells; values below 0 were filed as 0. * marks the depositor's active call (above 70%). Part of the library is listed.

| Structure (SMILES) | inhibition (%) |
|---|---|
| Cl.O=C(c1ccc(-c2ccc(Cl)cc2)o1)N(Cc1ccccn1)c1ccc(N2CCNCC2)cc1 | 75.3* |
| CC(=O)O.NCCC(=O)NCCc1ncc[nH]1.O=C(O)C(F)(F)F.O=C(O)C(F)(F)F | 75.3* |
| Cn1c(=O)[nH]c2ncn(C)c2c1=O | 75.0* |
| O=c1c2ccccc2nc(/C=C/c2cccnc2)n1Cc1ccccc1 | 75.0* |
| COc1cc2c(cc1OC)-c1cc3ccc(OC)c(OC)c3c[n+]1CC2 | 74.7* |
| COc1ccc(CN(CCN(C)C)c2ncccn2)cc1 | 74.7* |
| Cl.Nc1ccn([C@@H]2O[C@H](CO)[C@@H](O)[C@@H]2O)c(=O)n1 | 74.6* |
| COc1ccc2c(c1)c1c(n2Cc2ccc(Cl)cc2)C(C)=NCC1 | 74.5* |
| CC1(C)OC[C@@H](COC(=O)CCc2ccc(OC[C@@H](O)CNCCNC(=O)N3CCOCC3)cc2)O1.Cl | 74.3* |
| O=C(O[C@@H]1[C@@H](O)[C@H](Oc2cc(O)c(C(=O)CCc3ccccc3)c(O)c2)O[C@@H]2COC(=O)c3cc(O)c(O)c(O)c3-c3c(cc(O)c(O)c3O)C(=O)O[C@@H]12)c1cc(O)c(O)c(O)c1 | 74.2* |
| C[C@H]1OC[C@]2(c3cc(NC(=O)c4cnc(C(F)F)cn4)ccc3F)N=C(N)SC[C@H]12 | 73.9* |
| Cc1ccc(-n2nc(C(C)(C)C)cc2NC(=O)Nc2ccc(OCCN3CCOCC3)cc2)cc1 | 73.8* |
| O=C1Nc2ccc(S(=O)(=O)Nc3ccc(O)c(Cl)c3)c3cccc1c23 | 73.8* |
| O=C(NCc1c(F)cc(F)cc1F)c1cn2c(c([O-])c1=O)C(=O)N1[C@H]3CC[C@H](C3)O[C@@H]1C2.[Na+] | 73.8* |
| O=C(Nc1ncc(-c2cc(C(F)F)nn2-c2c(Cl)cccc2Cl)s1)C1CC1 | 73.2* |
| COc1ccc2c(OCc3nnc4ccc(-c5ccccc5)nn34)ccnc2c1 | 73.2* |
| COc1ccc(CCO[C@@H]2CCCC[C@H]2N2CC[C@@H](O)C2)cc1OC.Cl | 73.1* |
| O=C(C=Cc1ccc(O)c(O)c1)c1ccc(O)c(O)c1O | 72.7* |
| CN1CCN(c2ccc(Nc3ncc4c(n3)SC(=Cc3ccc([N+](=O)[O-])cc3)C(=O)N4)cc2)CC1 | 72.4* |
| CC(C)(C)c1nc(-c2ccc(NC(=O)Nc3cccc(C(F)(F)F)c3)c3ccccc23)c2c(N)nccn12 | 72.4* |
| O=C1Nc2ccccc2C1=O | 72.3* |
| CCC(C)(C)C(=O)N(O)Cc1ccccc1 | 72.3* |
| Cc1ccc(S(=O)(=O)N[C@@H](Cc2ccccc2)C(=O)CCl)cc1 | 72.3* |
| Cl.NCCCOc1cc2ccccc2cc1C(=O)NCCOc1cc2ccccc2cc1C(=O)Nc1ccc(Cl)cc1O | 72.2* |
| CO[C@H]1C[C@@H]2CC[C@@H](C)[C@@](O)(O2)C(=O)C(=O)N2CCCC[C@H]2C(=O)O[C@H]([C@H](C)C[C@@H]2CC[C@@H](OP(C)(C)=O)[C@H](OC)C2)CC(=O)[C@H](C)/C=C(\C)[C@@H](O)[C@@H](OC)C(=O)[C@H](C)C[C@H](C)/C=C/C=C/C=C/1C | 72.1* |
| CS(=N)(=O)CC[C@H](N)C(=O)O | 72.1* |
| CC1=NNC(=O)C1=Cc1cn(-c2ccccc2)nc1-c1ccccc1 | 71.9* |
| CC(C)OC(=O)NC1CCN(Cc2cc(Cl)c3cccnc3c2O)CC1 | 71.8* |
| Br.CCCc1cc(-c2nc(-c3ccc(C)cc3)cs2)ccn1 | 71.8* |
| O=C1N[C@](c2ccc(N3CCOCC3)cc2)(c2cccs2)CC(O)=C1Sc1ccccc1Cl | 71.7* |
| C=CCc1cc(OC)c(O[C@@H](C)[C@H](O)c2ccc(O)c(OC)c2)c(OC)c1 | 71.6* |
| Cl.Cl.O=C(O)COCCN1CCN([C@H](c2ccccc2)c2ccc(Cl)cc2)CC1 | 71.6* |
| c1cn2cc(-c3ccc4cn[nH]c4c3)nc(Nc3ccc(N4CCOCC4)cc3)c2n1 | 71.3* |
| Cl.NCCc1cc(O)c(O)cc1O | 71.2* |
| O=C(COCC(=O)N1CCN(C(c2ccccc2)c2ccccc2)CC1)Nc1ccc(Cl)cc1C(=O)[O-].[Na+] | 71.2* |
| CCCNC[C@]1(O)[C@H](C)O[C@@H](O[C@H]2[C@H](C)[C@@H](O[C@@H]3O[C@H](C)C[C@H](N(C)C)[C@H]3O)[C@](C)(O)C[C@@H](C)CN[C@H](C)[C@@H](O)[C@](C)(O)[C@@H](CC)OC(=O)[C@@H]2C)C[C@@]1(C)OC | 70.8* |
| Cn1c(=O)cc(N2CCC[C@@H](N)C2)n(Cc2ccccc2C#N)c1=O | 70.7* |
| COc1cc2nccc(Oc3ccc(NC(=O)Cc4ccc(Cl)c(C(F)(F)F)c4)cc3)c2cc1OC | 70.7* |
| C=C1[C@H](OC(C)=O)[C@@H](OC(=O)c2ccccc2)[C@@H](OC(C)=O)C(C)(C)[C@H]2O[C@](O)([C@H](C)C2=O)[C@@]2(OC(C)=O)C[C@H](C)[C@H](OC(C)=O)[C@@H]2[C@H]1OC(C)=O | 70.7* |
| CCN(CC)CCNC(=O)c1ccc(N)cc1 | 70.5* |
| O=C(Oc1ccc([N+](=O)[O-])cc1)N1CCC(C(O)(c2ccc3c(c2)OCO3)c2ccc3c(c2)OCO3)CC1 | 70.4* |
| COc1ccc(-c2csc(NC(=O)[C@H](Cc3c[nH]c4ccccc34)NS(=O)(=O)c3ccc(C)cc3)n2)cc1 | 70.4* |
| N#Cc1cc(-c2ccnc(Nc3ccc(N4CCOCC4)cc3)n2)ccc1OC1CCOCC1 | 69.9 |
| c1cc2c(cc1O[C@H]1OC[C@H]3[C@@H]1CO[C@@H]3c1ccc3c(c1)OCO3)OCO2 | 69.9 |
| CC(C)c1cc(C(=O)N2Cc3ccc(CN4CCN(C)CC4)cc3C2)c(O)cc1O | 69.8 |
| O=C(O)c1ccc(CSc2nc(-c3ccccc3)cc(N3CCN(c4ccccc4Cl)CC3)n2)cc1 | 69.6 |
| CN1CCN2c3c(cccc31)[C@@H]1CN(CCCC(=O)c3ccc(F)cc3)CC[C@@H]12.Cc1ccc(S(=O)(=O)O)cc1 | 69.3 |
| COc1ccc2[n-]c(S(=O)Cc3ncc(C)c(OC)c3C)nc2c1.COc1ccc2[n-]c(S(=O)Cc3ncc(C)c(OC)c3C)nc2c1.O.O.O.[Mg+2] | 69.3 |
| COc1cc2c(cc1OC)[C@@H]1Cc3ccc(OC)c(OC)c3C[N@@+]1([O-])CC2 | 69.2 |
| N#CC[C@@H](C1CCCC1)n1cc(-c2ncnc3[nH]ccc23)cn1 | 69.2 |
| O=S(=O)([O-])O.c1c2c(cc3c1OCO3)-c1cc3ccc4c(c3c[n+]1CC2)OCO4 | 69.2 |
| Fc1cc(F)c2c(c1)[C@H]1C=CC[C@H]1C(c1cccnc1)N2 | 69.2 |
| Cn1cc(-c2ccc3nnc(C(F)(F)c4ccc5ncccc5c4)n3n2)cn1 | 69.2 |
| CCN1C(=O)N(c2c(F)c(OC)cc(OC)c2F)Cc2cnc3[nH]c(CN4CCOCC4)cc3c21 | 69.1 |
| CC(=O)NCC(=O)N[C@@H](CCC(N)=O)C(=O)N[C@@H](Cc1ccccc1)C(=O)N[C@@H](CCCN=C(N)N)C(=O)c1nc2ccccc2s1 | 69.1 |
| CC1CC(C)CN(CCC(=O)Nc2ccc(Br)cc2)C1.Cl | 69.1 |
| O=C(NCCCCCCNC(=O)ON=C1CCCCC1)ON=C1CCCCC1 | 68.9 |
| COc1cccc(N2CCN(C3=Nc4c(F)cccc4[C@H](CC(=O)O)N3c3cc(C(F)(F)F)ccc3OC)CC2)c1 | 68.9 |
| O=C(ON=C1c2ccccc2-c2nc3ccccc3nc21)c1ccco1 | 68.9 |
| Cc1cccn2c(=O)c3cc(C(=O)NCCCN4CCOCC4)c(=N)n(CCc4ccccc4)c3nc12 | 68.7 |
| C[C@@H](CO)NC(=O)c1cc(-c2ccc(Cl)cc2)nn(-c2cnn(C)c2)c1=O | 68.7 |
| C[C@@H]1COC(Nc2ccc3ncnc(Nc4ccc(OCc5nccs5)c(Cl)c4)c3c2)=N1 | 68.7 |
| CN1CCN(c2ccc(N3C[C@H](CO)OC3=O)cc2F)C=N1 | 68.6 |
| CC(C)Cc1ccc([C@@H](C)C(=O)NS(C)(=O)=O)cc1 | 68.5 |
| COC(=O)CN(c1ccc(CN(c2ccc(OCc3ccc(C)cc3)c(C(=O)OC)c2)S(=O)(=O)Cc2ccccc2)cc1)S(C)(=O)=O | 68.4 |
| CCNc1cc(NC2CCC(O)CC2)nc(Nc2ccc3c(ccn3Cc3ccccc3)c2)n1 | 68.4 |
| c1ccc2c(c1)CCO2 | 68.4 |
| COc1ccc2c(c1)c(C(=O)Nc1cc(C(=O)OC(C)(C)C)ccc1F)cn2C(C)=O | 68.3 |

Repeating the final 11 entries:

| Structure (SMILES) | inhibition (%) |
|---|---|
| COc1cccc(N2CCN(C3=Nc4c(F)cccc4[C@H](CC(=O)O)N3c3cc(C(F)(F)F)ccc3OC)CC2)c1 | 68.9 |
| O=C(ON=C1c2ccccc2-c2nc3ccccc3nc21)c1ccco1 | 68.9 |
| Cc1cccn2c(=O)c3cc(C(=O)NCCCN4CCOCC4)c(=N)n(CCc4ccccc4)c3nc12 | 68.7 |
| C[C@@H](CO)NC(=O)c1cc(-c2ccc(Cl)cc2)nn(-c2cnn(C)c2)c1=O | 68.7 |
| C[C@@H]1COC(Nc2ccc3ncnc(Nc4ccc(OCc5nccs5)c(Cl)c4)c3c2)=N1 | 68.7 |
| CN1CCN(c2ccc(N3C[C@H](CO)OC3=O)cc2F)C=N1 | 68.6 |
| CC(C)Cc1ccc([C@@H](C)C(=O)NS(C)(=O)=O)cc1 | 68.5 |
| COC(=O)CN(c1ccc(CN(c2ccc(OCc3ccc(C)cc3)c(C(=O)OC)c2)S(=O)(=O)Cc2ccccc2)cc1)S(C)(=O)=O | 68.4 |
| CCNc1cc(NC2CCC(O)CC2)nc(Nc2ccc3c(ccn3Cc3ccccc3)c2)n1 | 68.4 |
| c1ccc2c(c1)CCO2 | 68.4 |
| COc1ccc2c(c1)c(C(=O)Nc1cc(C(=O)OC(C)(C)C)ccc1F)cn2C(C)=O | 68.3 |